Target: Sphingosine kinase 1 (Homo sapiens, UniProt Q9NYA1)
Assay: Inhibition of recombinant full length GST-tagged human SPHK1 expressed in baculovirus expression system incubated for 1 hr in presence of ATP by Alexa Fluor 647 tracer based Adapta assay relative to control
Settings: concentration not given here

Sequences of proteins named here, by UniProt entry; tags and fusion partners are left off.
UniProt Q9NYA1, whole entry: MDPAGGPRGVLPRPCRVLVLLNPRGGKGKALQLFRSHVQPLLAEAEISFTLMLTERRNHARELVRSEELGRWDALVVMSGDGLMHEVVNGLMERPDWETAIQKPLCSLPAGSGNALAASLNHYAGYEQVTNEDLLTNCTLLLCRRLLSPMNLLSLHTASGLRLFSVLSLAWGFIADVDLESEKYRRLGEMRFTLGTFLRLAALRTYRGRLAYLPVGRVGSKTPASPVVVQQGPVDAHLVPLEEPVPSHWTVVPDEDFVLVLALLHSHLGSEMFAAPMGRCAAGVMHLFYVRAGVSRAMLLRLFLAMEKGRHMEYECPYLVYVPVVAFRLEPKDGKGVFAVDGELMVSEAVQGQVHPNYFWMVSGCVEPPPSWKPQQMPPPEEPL

O=C(N/N=C/c1c(O)ccc2ccccc12)c1cc(-c2ccc3ccccc3c2)n[nH]1
inhibition: 3%

Reference: ChEMBL document CHEMBL4808240, “Design, synthesis and analysis of novel sphingosine kinase-1 inhibitors to improve oral bioavailability” (Bioorg Med Chem Lett, 2021)
